# Laboratory results taken from patent publication US11819483B2, “Combination therapy to treat urea cycle disorders” (Baylor College of Medicine, priority 2017, dated 2023).
# Like-named read-outs stand apart in the source and are kept apart here. Marks after values point to notes of the source that are not given here.
substance,measurement,setting,value
sodium phenylbutyrate [NaPB],PB AUC0-8,"plasma phenylbutyrate, 0 to 8 h, day 4",1802.6 µmol/L
same,PB Tmax,"plasma phenylbutyrate, dose on day 4 after 3-day treatment",1.5^b h
same,PB Tmax,"plasma phenylbutyrate, dose on day 4 after 3-day treatment, listed as phenylbutyrate",~1.5 h
same,"Phenylbutyrate and PAA Cmax and AUC0-8, NaPB arm relative to MIX arm","plasma, day 4",2-3 times
same,Cmax,"read-out: PB Cmax, plasma phenylbutyrate, dose on day 4 after 3-day treatment, healthy adults",727 µM
